# Values quoted from earlier work as cited in US20090054564A1, “Piperazine polyphosphate, methods for its preparation and its use” (Clariant International Ltd., priority 2007, published 2009).
# Details: prior art WO-2005/037 806, purest product
substance,measurement,value
piperazine pyrophosphate,"decomposition temperature (5% weight loss, WL)",324 °C
